Assay results taken from patent US20140099354A1, “BIOPASSIVATING MEMBRANE STABILIZATION BY MEANS OF NITROCARBOXYLIC ACID-CONTAINING PHOSPHOLIPIDS IN PREPARATIONS AND COATINGS” (priority 2011, published 2014).

System: Murine macrophages (RAW 264.7)

Row | Substance | viability of adhering macrophages
1 | 1-erucinyl-2-(9-nitrogadoleoyl)-sn-3-glycerophosphocholine and 1-erucinyl-2-(10-nitrogadoleoyl)-sn-3-glycerophosphocholine [Example P3] | 95-98%
2 | 1-Palmitoyl-2-(10-hydroxy-9-nitro-α-linolenoyl)-sn-3-glycerophosphocholine and 1-palmitoyl-2-(9-hydroxy-10-nitro-α-linolenoyl)-sn-3-glycerophosphocholine [Example O6] | 95-98%
